In patent US7345051B2, “Mucin synthesis inhibitors” (Genaera Corporation, priority 2000, dated 2008):

Test system: activated Caco2 cells
Experiment: Mucin production (PAS staining) by activated Caco2 cells
Settings: FIG. 2; concentration not given

Substance: Tolfenamate
- Mucin production by activated Caco2 cells: inhibited
